Reference: PubChem BioAssay AID588478 (ICCB-Longwood Screening Facility, Harvard Medical School, 2011)
Only a part is listed here, and it is no random draw. The source made the active and inactive calls.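 How the source made its calls: active means mean inhibition over replicate wells above about 20% (limit read from the data); inactive means the rest.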

Chains of the proteins cited; added tags and fusions are not shown.
UniProt Q9Y5K5, whole entry: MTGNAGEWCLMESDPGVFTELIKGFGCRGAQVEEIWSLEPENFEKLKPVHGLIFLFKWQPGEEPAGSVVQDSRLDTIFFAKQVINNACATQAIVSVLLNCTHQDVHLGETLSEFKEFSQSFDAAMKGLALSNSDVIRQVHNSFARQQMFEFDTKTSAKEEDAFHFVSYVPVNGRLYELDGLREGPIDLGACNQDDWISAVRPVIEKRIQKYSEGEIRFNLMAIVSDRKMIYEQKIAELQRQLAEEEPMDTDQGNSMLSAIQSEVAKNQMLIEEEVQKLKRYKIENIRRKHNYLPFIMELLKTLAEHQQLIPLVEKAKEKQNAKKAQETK

Target: Ubiquitin carboxyl-terminal hydrolase isozyme L5 (Homo sapiens) (UniProt Q9Y5K5)
Assay: inhibitors of human UCH37 deubiquitinase, primary screen, biochemical, Ub-AMC cleavage, fluorescence (AID 588478);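 further: 0% = compound-free wells with enzyme and 100% = wells lacking proteasome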
Conditions: purified proteasome/UCH37, Ub-AMC cleavage fluorescence; stronger effect = higher value; concentration not given here
In short: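 Test system – human UCH37 enzyme supplied as purified proteasome complex · Incubation – 30 min preincubation with enzyme, 25 min cleavage at room temperature · Detection – AMC fluorescence from Ub-AMC cleavage, excitation 355 nm, emission 460 nm · Benchmarks – no-proteasome wells (full inhibition) and compound-free wells (no inhibition)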

Row | Structure (SMILES) | inhibition
1 | CCC(=O)N(c1ccccc1)C1(COC)CCN(CCn2nnn(CC)c2=O)CC1 | inactive: -1.04%
2 | CCC(=O)N(c1ccccc1)C1(COC)CCN(CCc2cccs2)CC1 | inactive: 2.1%
